Literature values in patent US20020165286A1, “Dermal anti-inflammatory composition” (priority 2000, published 2002).

Settings: topical administration; cited from earlier work

Q: With CCC[C@@H]1C[C@@H](C(=O)N[C@@H]([C@H]2O[C@H](SC)[C@H](O)[C@@H](O)[C@H]2O)[C@H](C)Cl)N(C)C1 [Clindamycin] as the compound, how does the Potential irritant read?
A: Its Potential irritant is “No”.
